Results on five molecules are retold here after patent publication US8168592B2 (Amgen Inc., priority 2005, dated 2012).

Sequences of proteins named here, by UniProt entry; tags and fusion partners are left off. Residues count along the entry.
UniProt O60894, 27-148: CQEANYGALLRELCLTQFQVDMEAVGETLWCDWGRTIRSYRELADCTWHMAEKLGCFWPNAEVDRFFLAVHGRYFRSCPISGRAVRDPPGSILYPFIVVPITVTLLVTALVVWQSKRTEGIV
UniProt Q16602, 23-461: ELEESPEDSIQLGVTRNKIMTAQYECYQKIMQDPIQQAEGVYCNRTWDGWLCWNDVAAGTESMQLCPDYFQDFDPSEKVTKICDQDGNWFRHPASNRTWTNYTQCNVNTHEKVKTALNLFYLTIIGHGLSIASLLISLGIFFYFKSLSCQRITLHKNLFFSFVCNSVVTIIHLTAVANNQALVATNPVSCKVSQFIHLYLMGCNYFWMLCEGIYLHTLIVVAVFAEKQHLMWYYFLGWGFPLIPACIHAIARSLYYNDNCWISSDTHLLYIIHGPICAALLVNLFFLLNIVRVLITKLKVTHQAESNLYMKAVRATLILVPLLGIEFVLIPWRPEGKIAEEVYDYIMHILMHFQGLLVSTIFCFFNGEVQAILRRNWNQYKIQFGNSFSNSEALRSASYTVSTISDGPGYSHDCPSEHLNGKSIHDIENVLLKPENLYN

pIC50: −log10 of the molar value. Read-outs that look alike come from different tables or passages of the source.

Usually pIC50 stands for −log10 of the IC50, conventionally taken in molar units. In general, fraction remaining refers to the share of the starting amount still present when the sample was taken. High values mean less turnover, low ones more turnover.

Series [1] concerns the target T1, CGRP1 receptor (Homo sapiens, UniProt O60894+Q16602).
T1 construct: SK-N-MC cells express CRLR and RAMP1, which form CGRP1 receptor; endogenous in cells; host or cells: SK-N-MC human neuroblastoma cells
Briefly: in vitro CGRP1 receptor mediated cAMP assay in SK-N-MC cells. In kind it is cell-based. The protocol:
The in vitro cAMP assay employed a human neuroblastoma-derived cell line (SK-N-MC). SK-N-MC cells express CRLR and RAMP1, which form CGRP1 receptor. CGRP1 receptor is a G-protein coupled receptor linked to the stimulatory G-protein, Gs. […] Briefly, two days before the assay, the cells were plated in 96-well plates in growth medium. On the day of the assay cells were rinsed with PBS followed by the addition of 60 μl of plasma free medium for 15 minutes at room temperature. […] The medium was then removed and the cells were lysed with 100 μl lysis buffer for 30 minutes at 37° C. for 30 minutes. Using a Tropix ELISA kit (Applied Biosystems, Foster City, Calif.), a cAMP-AP conjugate was diluted (1:100) and added (30 μl) to each well of a 96-well ELISA plate. An aliquot of the lysis buffer from the cell plate was then added to the ELISA plate followed by an aliquot of the cAMP antibody. This mixture was incubated for 1 hour at room temperature with gentle shaking. The ELISA plate was then washed 6× with wash buffer followed by the additions of a substrate enhancer. This mixture was incubated for 30 minutes at room temperature and then read on a MicroBeta Jet or EnVision plate reader. The results were analyzed using Prism (GraphPad).
Background: Cyclic AMP is a second messenger, typically raised through Gs and lowered through Gi signalling.

Series [2] can be described thus: in vitro stability in 10% human plasma, LC-MS/MS. Format: in vitro ADME. To be noted: room temperature. The protocol: (§1) Consequently, the stability of select, non-PEGylated analogs was evaluated in vitro in the presence of 10% rat or human plasma. Briefly, samples of each peptide were diluted to 100 ng/ml into PBS containing 10% of rat or human plasma. Each sample was then incubated at room temperature and analyzed by LC-MS/MS to quantitate the intact peptide remaining at select time points over 6 hours.
(§2) The CGRP peptide analogs tested were the di-substituted (R11hR/R18hR) analog (Table 7, SEQ ID NO:25), the di-substituted (R11Cit/R18Cit) analog (Table 7, SEQ ID NO:31), the di-substituted (R11Q/R18Q) analog (Table 7, SEQ ID NO:39), the mono-substituted (R18Q) analog (Table 7, SEQ ID NO:37) and as a control, the un-substituted (R11/R18) analog (Table 4, SEQ ID NO:7).

The nature of series [3]: in vitro stability in 10% rat plasma, LC-MS/MS. Format: in vitro ADME. To be noted: room temperature. The protocol:
as §1, §2

Series [4] in a line: solubility in aqueous conjugation buffers. In kind it is physicochemical. The protocol: Co-solvent mediated conjugation of vehicle to CGRP peptide antagonists. […] In an attempt to better solubilize these less soluble peptides during the conjugation reaction, and thereby improve conjugate yields, a variety of alcohol co-solvents were tested in the conjugation reaction.
Where [5] appears, read: Table 2C, unconjugated peptide, read-out: Peptide IC50.
[6] abbreviates: read-out: time at which 50% remains (converted).

With `CC(=O)N[C@@H](Cc1c[nH]c2ccccc12)C(=O)N[C@H](C(=O)N[C@H](C(=O)N[C@@H](Cc1cnc[nH]1)C(=O)N[C@@H](CCCNC(N)=O)C(=O)N[C@@H](CC(C)C)C(=O)N[C@@H](C)C(=O)NCC(=O)N[C@@H](CC(C)C)C(=O)N[C@@H](CC(C)C)C(=O)N[C@@H](CO)C(=O)N[C@@H](CCCNC(N)=O)C(=O)N[C@@H](CO)C(=O)NCC(=O)NCC(=O)N[C@H](C(=O)N[C@H](C(=O)N[C@@H](CCCN=C(N)N)C(=O)N[C@@H](CCCCN)C(=O)N[C@@H](CC(N)=O)C(=O)N[C@@H](Cc1ccccc1)C(=O)N[C@H](C(=O)N1CCC[C@H]1C(=O)N[C@H](C(=O)N[C@@H](CC(=O)O)C(=O)N[C@H](C(=O)NCC(=O)N1CCC[C@H]1C(=O)N[C@@H](Cc1ccccc1)C(=O)N[C@@H](C)C(=O)N[C@@H](Cc1ccccc1)C(N)=O)C(C)C)[C@@H](C)O)C(C)C)C(C)C)C(C)C)[C@@H](C)O)C(C)C` [compound 863], the pIC50 in series [1] (setting [5]) was 8.74.

`CC(=O)N[C@@H](Cc1c[nH]c2ccccc12)C(=O)N[C@H](C(=O)N[C@H](C(=O)N[C@@H](Cc1cnc[nH]1)C(=O)N[C@@H](CCCNC(N)=O)C(=O)N[C@@H](CC(C)C)C(=O)N[C@@H](C)C(=O)NCC(=O)N[C@@H](CC(C)C)C(=O)N[C@@H](CC(C)C)C(=O)N[C@@H](CO)C(=O)N[C@@H](CCCNC(N)=O)C(=O)N[C@@H](CO)C(=O)NCC(=O)NCC(=O)N[C@H](C(=O)N[C@H](C(=O)N[C@@H](CCCN=C(N)N)C(=O)N[C@@H](CCCCN)C(=O)N[C@@H](CC(N)=O)C(=O)N[C@@H](Cc1ccccc1)C(=O)N[C@H](C(=O)N1CCC[C@H]1C(=O)N[C@H](C(=O)N[C@@H](CC(=O)O)C(=O)N[C@H](C(=O)NCC(=O)N1CCC[C@H]1C(=O)N[C@@H](Cc1ccccc1)C(=O)N[C@@H](C)C(=O)N[C@@H](Cc1ccccc1)C(N)=O)C(C)C)[C@@H](C)O)C(C)C)C(C)C)C(C)C)[C@@H](C)O)C(C)C` [compound 790]: the pIC50 in series [1] (Table 2D, read-out: IC50) was 8.77.

In the case of `CC(=O)N[C@@H](Cc1c[nH]c2ccccc12)C(=O)N[C@H](C(=O)N[C@H](C(=O)N[C@@H](Cc1cnc[nH]1)C(=O)N[C@@H](CCCNC(N)=O)C(=O)N[C@@H](CC(C)C)C(=O)N[C@@H](C)C(=O)NCC(=O)N[C@@H](CC(C)C)C(=O)N[C@@H](CC(C)C)C(=O)N[C@@H](CO)C(=O)N[C@@H](CCCNC(N)=O)C(=O)N[C@@H](CO)C(=O)NCC(=O)NCC(=O)N[C@H](C(=O)N[C@H](C(=O)N[C@@H](CCCN=C(N)N)C(=O)N[C@@H](CCCCN)C(=O)N[C@@H](CC(N)=O)C(=O)N[C@@H](Cc1ccccc1)C(=O)N[C@H](C(=O)N1CCC[C@H]1C(=O)N[C@H](C(=O)N[C@@H](CC(=O)O)C(=O)N[C@H](C(=O)NCC(=O)N1CCC[C@H]1C(=O)N[C@@H](Cc1ccccc1)C(=O)N[C@@H](C)C(=O)N[C@@H](Cc1ccccc1)C(N)=O)C(C)C)[C@@H](C)O)C(C)C)C(C)C)C(C)C)[C@@H](C)O)C(C)C` [SEQ ID NO:31], the “time at which about 10% of the starting concentration remains” value in series [2] is on record as “about 4 hours”; in series [3], “about 5 hours”. The figures for the half-life at 100 ng/ml in series [2] (setting [6]) and in series [3] (setting [6]) were about 1 h and about 1.5 h, respectively. The “reduced antagonist activity relative to the single-substitution analogs” value in series [1] (non-PEGylated double substitution at R11 and R18) is reported as “about 3 fold”.

For the molecule `CC(=O)N[C@@H](Cc1c[nH]c2ccccc12)C(=O)N[C@H](C(=O)N[C@H](C(=O)N[C@@H](Cc1cnc[nH]1)C(=O)N[C@@H](CCCNC(N)=O)C(=O)N[C@@H](CC(C)C)C(=O)N[C@@H](C)C(=O)NCC(=O)N[C@@H](CC(C)C)C(=O)N[C@@H](CC(C)C)C(=O)N[C@@H](CO)C(=O)N[C@@H](CCCNC(N)=O)C(=O)N[C@@H](CO)C(=O)NCC(=O)NCC(=O)N[C@H](C(=O)N[C@H](C(=O)N[C@@H](CCCN=C(N)N)C(=O)N[C@@H](CCCCN)C(=O)N[C@@H](CC(N)=O)C(=O)N[C@@H](Cc1ccccc1)C(=O)N[C@H](C(=O)N1CCC[C@H]1C(=O)N[C@H](C(=O)N[C@@H](CC(=O)O)C(=O)N[C@H](C(=O)NCC(=O)N1CCC[C@H]1C(=O)N[C@@H](Cc1ccccc1)C(=O)N[C@@H](C)C(=O)N[C@@H](Cc1ccccc1)C(N)=O)C(C)C)[C@@H](C)O)C(C)C)C(C)C)C(C)C)[C@@H](C)O)C(C)C` [SEQ ID NO: 31], the “% Remaining” value in series [2] (100 ng/ml, 0 h) came out at 100.0%. Besides, in series [2] (100 ng/ml, 0.17 h), the amount remaining at 0.17 h, 100 ng/ml came out at 73%. Moreover, in series [2] (100 ng/ml, 0.5 h), the share remaining at 0.5 h, 100 ng/ml amounted to 52.8%. For the same molecule, the fraction remaining at 1 h, 100 ng/ml in series [2] (100 ng/ml, 1 h) was 44%. Also, in series [2] (100 ng/ml, 2 h), the fraction remaining at 2 h, 100 ng/ml turned out to be 34.9%. For the same molecule, the fraction remaining at 3 h, 100 ng/ml in series [2] (100 ng/ml, 3 h) worked out at 15.3%. For the same molecule, the share remaining at 4 h, 100 ng/ml in series [2] (100 ng/ml, 4 h) is 11.8%. The amount remaining at 5 h, 100 ng/ml in series [2] (100 ng/ml, 5 h) turned out to be 6.1%. Further, the fraction remaining at 6 h, 100 ng/ml in series [2] (100 ng/ml, 6 h) came out at 5.9%. The solubility in words result in series [4] was “relatively insoluble”.

For `CC(=O)N[C@@H](Cc1c[nH]c2ccccc12)C(=O)N[C@H](C(=O)N[C@H](C(=O)N[C@@H](Cc1c[nH]cn1)C(=O)N[C@@H](CCCNC(N)=O)C(=O)N[C@@H](CC(C)C)C(=O)N[C@@H](C)C(=O)NCC(=O)N[C@@H](CC(C)C)C(=O)N[C@@H](CC(C)C)C(=O)N[C@@H](CO)C(=O)N[C@@H](CCCNC(N)=O)C(=O)N[C@@H](CO)C(=O)NCC(=O)NCC(=O)N[C@H](C(=O)N[C@H](C(=O)N[C@@H](Cc1ccc(NC(=N)N)cc1)C(=O)N[C@@H](CCCCN)C(=O)N[C@@H](CC(N)=O)C(=O)N[C@@H](Cc1ccccc1)C(=O)N[C@H](C(=O)N1CCC[C@H]1C(=O)N[C@H](C(=O)N[C@@H](CC(=O)O)C(=O)N[C@H](C(=O)NCC(=O)N1CCC[C@H]1C(=O)N[C@@H](Cc1ccccc1)C(=O)N[C@@H](C)C(=O)N[C@@H](Cc1ccccc1)C(N)=O)C(C)C)[C@@H](C)O)C(C)C)C(C)C)C(C)C)[C@@H](C)O)C(C)C` [compound 939], the pIC50 in series [1] (setting [5]) is 9.01.
